Sequences of proteins named here, by UniProt entry; tags and fusion partners are left off. Residues count along the entry.
UniProt P47871, 26-477 limits assumed: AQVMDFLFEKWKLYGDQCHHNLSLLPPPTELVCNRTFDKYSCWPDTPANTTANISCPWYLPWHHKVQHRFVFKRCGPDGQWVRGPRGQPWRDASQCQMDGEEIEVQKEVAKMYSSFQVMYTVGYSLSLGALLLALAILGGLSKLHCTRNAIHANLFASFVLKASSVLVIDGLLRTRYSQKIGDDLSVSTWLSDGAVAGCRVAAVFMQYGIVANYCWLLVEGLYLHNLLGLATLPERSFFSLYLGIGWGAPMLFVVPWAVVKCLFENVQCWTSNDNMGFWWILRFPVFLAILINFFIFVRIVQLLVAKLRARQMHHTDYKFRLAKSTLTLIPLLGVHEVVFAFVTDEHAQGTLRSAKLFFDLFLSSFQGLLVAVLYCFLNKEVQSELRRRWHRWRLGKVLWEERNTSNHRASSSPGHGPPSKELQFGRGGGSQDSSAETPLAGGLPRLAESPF

In patent publication US10000473B2, “Indazole derivatives useful as glucagon receptor antagonists” (Janssen Pharmaceutica NV, priority 2016, dated 2018):

Each molecule was assayed against human GCGR (Homo sapiens, UniProt P47871) (assay: Cellular functional assay, cAMP readout (glucagon-stimulated cAMP, LANCE TR-FRET)). Details: read-out: Inhibition of cAMP Ki; HEK293 cells stably expressing full-length human GCGR; glucagon 100 pM; IC50 converted to Ki.
Assay type: cell-based

SMILES | Ki [nM]
O=C(O)CCNC(=O)c1ccc(C(CCc2ccc(Cl)cc2)n2ncc3cc(-c4ccc(C(F)(F)F)cc4)ccc32)cc1 (stereo not shown) | 484
O=C(O)CCNC(=O)c1ccc(C(CCC2CCCCC2)n2ncc3cc(-c4ccc(C(F)(F)F)cc4)ccc32)cn1 (stereo not shown) | 361
COCCC(c1ccc(C(=O)NCCC(=O)O)cc1)n1ncc2cc(-c3ccc(C(F)(F)F)cc3)ccc21 (stereo not shown) | 2400
O=C(O)CCNC(=O)c1ccc(C(CCC2CCC2)n2cc3cc(-c4ccc(C(F)(F)F)cc4)ccc3n2)cc1 (stereo not shown) [Compound #215, 3-(4-(3-Cyclobutyl-1-(5-(4-(trifluoromethyl)phenyl)-2H-indazol-2-yl)propyl)benzamido)propanoic acid] | 100
